pIC50: −log10 of the molar value.
Assays:
[1] = molecular target: T1, P2X purinoceptor 7 (Homo sapiens, UniProt Q99572); test: Antagonist activity at P2X7 receptor in human THP1 cells assessed as inhibition of BzATP-induced YO-PRO-1 Iodide uptake measured every 30 secs for 1 hr by fluorescence assay; format: cell-based
[2] = molecular target: T2, P2X purinoceptor 7 (Mus musculus, UniProt Q9Z1M0); test: Antagonist activity at mouse P2X7 receptor expressed in 1321N1 cells assessed as inhibition of agonist-induced calcium flux pretreated for 3 mins followed by BzATP addition after 3 mins measured every 1 sec for 60 secs and at 5 secs interval throughout testing by Flou-4-AM dye based FLIPR assay; format: cell-based
T2 sequence (Q9Z1M0 whole entry): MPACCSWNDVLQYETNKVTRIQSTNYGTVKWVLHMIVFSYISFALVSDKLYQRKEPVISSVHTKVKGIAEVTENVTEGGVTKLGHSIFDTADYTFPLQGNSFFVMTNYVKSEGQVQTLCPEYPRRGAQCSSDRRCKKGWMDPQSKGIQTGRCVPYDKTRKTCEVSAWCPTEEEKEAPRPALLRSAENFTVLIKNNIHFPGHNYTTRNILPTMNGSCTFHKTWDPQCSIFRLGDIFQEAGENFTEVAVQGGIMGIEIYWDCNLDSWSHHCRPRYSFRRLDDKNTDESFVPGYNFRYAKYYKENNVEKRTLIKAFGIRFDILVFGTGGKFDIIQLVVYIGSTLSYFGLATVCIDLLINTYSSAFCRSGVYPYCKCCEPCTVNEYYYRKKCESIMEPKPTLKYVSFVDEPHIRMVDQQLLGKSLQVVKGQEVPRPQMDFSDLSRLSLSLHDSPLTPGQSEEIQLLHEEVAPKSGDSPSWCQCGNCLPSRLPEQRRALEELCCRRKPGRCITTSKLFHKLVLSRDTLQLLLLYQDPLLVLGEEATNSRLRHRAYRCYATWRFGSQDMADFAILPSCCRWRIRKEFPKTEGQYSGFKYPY

By UniProt entry, the sequences of proteins in these tests, tags left out. Where a name states a change or a piece, a line headed by the entry shows the natural chain unless it says otherwise.
UniProt Q99572: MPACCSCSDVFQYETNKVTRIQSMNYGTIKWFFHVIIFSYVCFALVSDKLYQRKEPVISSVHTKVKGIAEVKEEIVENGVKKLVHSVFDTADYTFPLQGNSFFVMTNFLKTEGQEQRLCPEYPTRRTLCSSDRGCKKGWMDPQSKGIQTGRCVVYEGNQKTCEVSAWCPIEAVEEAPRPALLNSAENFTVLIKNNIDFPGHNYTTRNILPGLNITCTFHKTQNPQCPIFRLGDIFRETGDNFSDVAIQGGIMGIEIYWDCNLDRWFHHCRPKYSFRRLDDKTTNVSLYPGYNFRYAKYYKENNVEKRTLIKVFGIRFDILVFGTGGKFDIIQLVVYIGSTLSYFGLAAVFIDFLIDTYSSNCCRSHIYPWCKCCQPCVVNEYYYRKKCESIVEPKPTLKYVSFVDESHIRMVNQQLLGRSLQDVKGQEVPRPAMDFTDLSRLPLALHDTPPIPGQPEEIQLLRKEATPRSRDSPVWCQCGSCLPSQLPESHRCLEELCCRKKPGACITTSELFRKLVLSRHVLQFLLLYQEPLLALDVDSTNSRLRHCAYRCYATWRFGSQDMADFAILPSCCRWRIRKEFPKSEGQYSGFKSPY

[3] = molecular target: T1, P2X purinoceptor 7; test: Antagonist activity at human P2X7 receptor expressed in 1321N1 cells assessed as inhibition of agonist-induced calcium flux pretreated for 3 mins followed by BzATP addition after 3 mins measured every 1 sec for 60 secs and at 5 secs interval throughout testing by Flou-4-AM dye based FLIPR assay; format: cell-based
[4] = molecular target: T1, P2X purinoceptor 7; test: Antagonist activity at P2X7 receptor in LPS-stimulated human THP1 cells assessed as inhibition of LPS/BzATP-induced IL-1beta release preincubated for 30 mins followed by BzATP addition measured after 30 mins by ELISA

- pIC50 [1]: 7.03
- pIC50 [2]: 7.96 to 8.05
- pIC50 [3]: 7.96 to 8.05
- pIC50 [4]: 8.05
SMILES: C[C@H](N/C(=N/C#N)Nc1cccc2ncccc12)c1ccccc1

From ChEMBL document CHEMBL4011591, “Discovery and pharmacological evaluation of a novel series of adamantyl cyanoguanidines as P2X7 receptor antagonists” (Eur J Med Chem, 2017)
